# Binding of CDR-mutated scFvs to a peptide of the spike HR2 region

From the AlphaSeq antibody data of Li et al. 2023 (doi:10.1038/s41467-023-39022-2), copy in the FLAb collection.

The target is the same throughout: PDVDLGDISGINAS, from the HR2 region of SARS-CoV-2 spike.

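Phage display of a naive human antibody library on the peptide gave the parent. These sequences belong to a second round, designed from the earlier measurements on random variants of the parent. Several design methods are mixed in this list. Affinity was read by AlphaSeq, a pooled yeast mating assay with surface-displayed partners. Pairs that bind mate more often; barcode pairs of the diploids are counted by sequencing. The ratio of observed to expected reads was calibrated, replicate by replicate, on BCL2-family standards whose Kd was known from biolayer interferometry. The assay was run in six technical replicates.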

Parent: Ab-14, a human scFv built as VH, a 15-residue (Gly4Ser)3 linker, VL. Only the CDRs of the heavy chain vary.
VH: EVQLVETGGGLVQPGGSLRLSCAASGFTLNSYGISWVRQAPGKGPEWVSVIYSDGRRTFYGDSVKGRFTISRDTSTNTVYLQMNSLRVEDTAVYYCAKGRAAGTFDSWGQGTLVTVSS
VL: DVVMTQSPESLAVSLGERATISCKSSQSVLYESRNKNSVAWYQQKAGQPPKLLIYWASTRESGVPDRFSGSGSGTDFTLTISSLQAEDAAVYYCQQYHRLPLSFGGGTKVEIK

Variants are written as CDR1, CDR2 and CDR3 of the heavy chain (limits as in the source). Parent: GFTLNSYGIS, VIYSDGRRTFYGDSVK, GRAAGTFDS.
Variants here have at most six changes.
The Kd shown is the geometric mean over detected replicates; a lower Kd is a better binder.
"nd" marks a missing value. The strain was present, yet no cells mated with the target were sequenced in any replicate, which points to weak or no binding.
Of ten entries with the parent sequence, four were seen in most replicates (averages 2.2 nM to 240 nM), three in one and three in none, so single entries are noisy.
Three control strains display no target. For all heavy chain designs, 1% of the pairings with them gave a signal, with a median of 120 nM and one signal in twenty below 7.0 nM, so weak values seen in few replicates may be background. Also given: how often the same scFv was detected with the empty control strains.
The range of this assay differs from that of the first round, and the authors advise against merging the two.
The authors' rule: three or more of the six replicates give a measured affinity, fewer mean a poor binder.

* GLTLNSYGIS / VIYADGRRTFYGDSVK / GRAAGTFDM: 21 nM (6 of 6 replicates; controls 0 of 18)
* GFSLNSYGIS / VIYSDGRRTFYQDSVK / GKAAGTFDS: 3.6 nM (6 of 6 replicates; controls 1 of 18)
* GFTLNSYGIS / VIYSDGRRTYYGDSVK / GRAAGTFDT: 25 nM (4 of 6 replicates; controls 0 of 18)
* GFTLNSYGIS / VIYSDGRRTFYGDSVK / GQLAGTFDD: 1.1 nM (6 of 6 replicates; controls 1 of 18)
* GFTLNSYGIS / VIYSDGRRTAYGDSVK / WRAAGTFDS: 6.1 nM (6 of 6 replicates; controls 1 of 18)
* GFTLNSYGIS / VIYSDGRRTFYSDSVK / GRAAGTFIS: nd (0 of 6 replicates; controls 0 of 18)
* GFTLNSYGIS / VMYSDGRRTFYGDSVK / GAAAGTFDS: 11 nM (2 of 6 replicates; controls 0 of 18)
* GFDLNSYGIS / VIYSDGRRTAYGDMVK / GRQAGTFDS: 720 pM (6 of 6 replicates; controls 1 of 18)
* GESLNSYGIS / VIYSDGRRTFYGDSVK / GRTAGTFDS: 900 pM (6 of 6 replicates; controls 0 of 18)
* GFTLNSYGIS / VIYSDGRRTFYDDSVK / GKLAGTFDR: 36 nM (2 of 6 replicates; controls 0 of 18)
* GFSLNSYGIS / VIYSDGRRTFYIDSVK / GRQAGTFDS: 61 nM (5 of 6 replicates; controls 0 of 18)
* GETLNEYGIS / VIYSDGRRTFYGDSVK / TRAAGTFRS: nd (0 of 6 replicates; controls 0 of 18)
* GFTWDSYGIP / VIYSDGRRTFYGDSVK / GRAAGTALS: nd (0 of 6 replicates; controls 0 of 18)
* GFSLNSYGIS / VIYADGRRTFYADSVK / GEAAGTFDS: 1.9 nM (6 of 6 replicates; controls 0 of 18)
* GFTLNTYGIS / VIYSDGRRTAYDDSVK / GRAAGDFDS: nd (0 of 6 replicates; controls 0 of 18)
* GFTLNRYGIS / VIYSDGRRTFYADSVK / GQLAGTFDS: 5.8 nM (6 of 6 replicates; controls 0 of 18)
* GFALNSYGIS / VIYSDGRRTFYGDSVK / GRCAGTFDS: nd (0 of 6 replicates; controls 0 of 18)
* GFDLNEYGIS / VIYADGRRTFYADSVK / GNAAGTFDQ: 470 pM (6 of 6 replicates; controls 1 of 18)
* GFSLNSYGIS / VIYSDGRRTAYGDDVK / GRTAGTFDS: 890 pM (6 of 6 replicates; controls 0 of 18)
* GFTLLSYGIS / VIYSDGRRTFYGDSVK / GRAAGVFDS: nd (0 of 6 replicates; controls 1 of 18)
* GFTLNSYGIS / VIYSDGRRTFYSDSVK / GHAVGTFDS: 1.1 µM (2 of 6 replicates; controls 1 of 18)
* GFTLDSYGIS / VIYADGRRTFYSDSVK / GRQAGTFDS: 1.3 nM (6 of 6 replicates; controls 0 of 18)
* GFTLLDYGIS / VIYSDGRRTFYGDSVK / GRNAGTFNS: 17 nM (5 of 6 replicates; controls 1 of 18)
* GFTLNSYGIS / VIYSDGRRTFYGDSVK / GRAVGTFDS: 59 nM (6 of 6 replicates; controls 0 of 18)
* GFSLNSYGIS / VIYSDGRRTFYKDSVK / GQAAGTFDT: 64 nM (5 of 6 replicates; controls 1 of 18)
* GFTLNEYGIS / VIYSDGRRTSYDDSVK / GRAAGTFDS: 35 nM (6 of 6 replicates; controls 0 of 18)
* GFNLNSYGIS / VIYSDGRRTFYADRVK / GHEAGTFDS: 2.8 nM (6 of 6 replicates; controls 0 of 18)
* GFTLESYGIS / VIYSDGKRTFYGDSVK / GRQAGTFDS: 18 nM (6 of 6 replicates; controls 2 of 18)
* GFTLNEQGIS / VIYSDGRRTFYGDSVK / GRAAGTFDS: 65 nM (6 of 6 replicates; controls 0 of 18)
* GFTLNSYGIS / VIYSDGRRTFYGDDVK / GNVAGTFDK: 11 nM (6 of 6 replicates; controls 0 of 18)
* GFTLNEYGIS / VIYSDGRRTAYTDSVK / GRFAGTFDP: nd (0 of 6 replicates; controls 0 of 18)
* GFTLESYGIS / VIYSDGRRTFYGDSVK / GRAAGTFVS: nd (0 of 6 replicates; controls 0 of 18)
* GFDLNSYGIS / VIYSDGRRTFYKDSVK / GQTAGTFDS: 1.5 nM (6 of 6 replicates; controls 0 of 18)
* GFTLDQYGIS / VIYSDGRRTFYSDSVK / GRAAGTFDS: 340 pM (6 of 6 replicates; controls 0 of 18)
* GFDLNSYGIS / VIYSDGRRTFYGDSVK / GQTAGTFDT: 910 pM (6 of 6 replicates; controls 0 of 18)
* GFTLNSVGIS / VIYSDGRRTFYSDSVK / GRAGGTFDS: nd (0 of 6 replicates; controls 0 of 18)
* GFTLNSYGIS / VIYSDGRRTFYIDSVK / GTAAGTFDS: 5.4 nM (6 of 6 replicates; controls 0 of 18)
* GFTLNSYGIS / VIYSDGRRTFYSDSVD / GRAAGTTDS: nd (0 of 6 replicates; controls 0 of 18)
* GFTLDSYGIS / VIYSDGRRTFYDDSVK / GRLAGTFDS: 3.5 nM (6 of 6 replicates; controls 1 of 18)
* GFSLNEYGIS / VIYSDGRRTFYGDSVK / GRTAGTFDD: 1.2 nM (6 of 6 replicates; controls 0 of 18)
* GFELNSYGIS / VIYADGRRTFYGDNVK / GRAAGTFDS: 22 nM (6 of 6 replicates; controls 1 of 18)
* GFSLNEYGIS / VIYSDGRRTFYGDSVK / GRQAGTFES: 1.5 nM (6 of 6 replicates; controls 1 of 18)
* GFTLNSYGIS / VIYSDGRRTFYGDSVK / GRASGPFDS: nd (0 of 6 replicates; controls 0 of 18)
* GFWLNDYGIS / VIYSDGRRTFYGDSVK / GRTAGTFDT: 12 nM (6 of 6 replicates; controls 0 of 18)
* GFTLNSYGIS / VIYSDGRRTFYGDSVK / GRAAGTADS: nd (0 of 6 replicates; controls 0 of 18)

Extract of 6 entries:

- GFTLNSYGIS / VIYSDGRRTFYDDSVK / GKLAGTFDR -> 36 nM (2 of 6 replicates; controls 0 of 18)
- GFTLNSYGIS / VIYSDGRRTFYSDSVK / GHAVGTFDS -> 1.1 µM (2 of 6 replicates; controls 1 of 18)
- GFTLESYGIS / VIYSDGKRTFYGDSVK / GRQAGTFDS -> 18 nM (6 of 6 replicates; controls 2 of 18)
- GFDLNSYGIS / VIYSDGRRTFYKDSVK / GQTAGTFDS -> 1.5 nM (6 of 6 replicates; controls 0 of 18)
- GFNLNSYGIS / VIYSDGRRTFYADRVK / GHEAGTFDS -> 2.8 nM (6 of 6 replicates; controls 0 of 18)
- GFTLDSYGIS / VIYADGRRTFYSDSVK / GRQAGTFDS -> 1.3 nM (6 of 6 replicates; controls 0 of 18)